From paper PMC7188517 come the findings set out here.

Amino acid sequences for entries named in this document (tags omitted). Residues count along the entry.
UniProt P00738, 162-406: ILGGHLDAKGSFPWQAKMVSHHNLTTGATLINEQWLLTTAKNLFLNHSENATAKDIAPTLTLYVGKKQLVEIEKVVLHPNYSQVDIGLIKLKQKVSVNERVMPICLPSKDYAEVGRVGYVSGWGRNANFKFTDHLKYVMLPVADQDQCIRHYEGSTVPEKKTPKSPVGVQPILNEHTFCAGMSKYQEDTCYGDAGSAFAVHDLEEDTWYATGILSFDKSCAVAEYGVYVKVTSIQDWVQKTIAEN
UniProt P00738, 19-160: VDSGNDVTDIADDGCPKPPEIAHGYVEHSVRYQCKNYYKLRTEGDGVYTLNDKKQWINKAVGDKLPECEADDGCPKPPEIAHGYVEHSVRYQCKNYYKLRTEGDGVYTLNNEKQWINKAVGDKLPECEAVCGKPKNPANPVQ

Assay [1] concerns the target haemoglobin in cerebrospinal fluid of subarachnoid haemorrhage patients (human (endogenous in CSF of SAH patients)). The experiment in a line: UPLC with absorbance at 415 nm; CSF alone run on the column in a tris-saline mobile phase; Hb-Hp complexes told from uncomplexed Hb by retention time; peak areas quantified with a Hb standard curve.
For assay [2] the target is unchanged. The experiment in a line: UPLC with absorbance at 415 nm; CSF incubated with exogenous Hp in excess of Hb-binding stoichiometry, then run on the column in a tris-saline mobile phase; increase of the complexed Hb peak area.

Take “endogenous haptoglobin in cerebrospinal fluid (from UniProt P00738 19-160; P00738 162-406) (natural protein)”: in assay [1], the percent of Hb uncomplexed (not bound to Hp) in CSF, from third day onwards amounted to 96.3%.
Consider “haptoglobin (Bio Products Laboratory Limited) (from UniProt P00738 19-160; P00738 162-406) (natural protein)”, for which, in assay [2], the percent of uncomplexed Hb that formed a complex with Hp, day 11-13 plateau was 76.4% and the percent of uncomplexed Hb that formed a complex with Hp, from the third day onwards was 90.6%.
